Experimental data taken from patent publication US7772230B2, “Chroman compound, processes for its preparation, and its pharmaceutical use” (China Pharmaceutical University, priority 2006, dated 2010).
pIC50: −log10 of the molar value.

Target: T1, slowly delayed rectifier potassium channel current (IKs) (Cavia porcellus, UniProt O70344)
T1 construct: the Guinea pig myocardial cells are separated with enzymolysis; endogenous in cells; host or cells: freshly isolated guinea pig ventricular myocytes
T1 sequence (O70344 1-671): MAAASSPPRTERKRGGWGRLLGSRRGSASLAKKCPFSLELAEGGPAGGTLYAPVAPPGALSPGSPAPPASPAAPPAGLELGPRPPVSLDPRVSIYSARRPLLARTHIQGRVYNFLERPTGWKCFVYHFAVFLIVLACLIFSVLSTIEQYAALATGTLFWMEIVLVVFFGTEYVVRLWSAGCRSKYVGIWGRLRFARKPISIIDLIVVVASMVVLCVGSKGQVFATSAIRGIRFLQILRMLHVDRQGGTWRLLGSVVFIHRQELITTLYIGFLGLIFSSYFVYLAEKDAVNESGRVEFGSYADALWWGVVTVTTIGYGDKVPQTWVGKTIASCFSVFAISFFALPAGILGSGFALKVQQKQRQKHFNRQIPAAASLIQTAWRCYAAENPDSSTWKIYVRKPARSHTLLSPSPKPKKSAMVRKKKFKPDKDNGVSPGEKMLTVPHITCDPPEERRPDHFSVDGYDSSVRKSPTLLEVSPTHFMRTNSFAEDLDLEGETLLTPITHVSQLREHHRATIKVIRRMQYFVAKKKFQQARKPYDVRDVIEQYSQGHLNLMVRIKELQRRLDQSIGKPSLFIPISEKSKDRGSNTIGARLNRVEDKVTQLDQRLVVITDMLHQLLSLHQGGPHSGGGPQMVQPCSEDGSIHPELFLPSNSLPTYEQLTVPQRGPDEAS
T1 sequence (P41686 1-245 partner): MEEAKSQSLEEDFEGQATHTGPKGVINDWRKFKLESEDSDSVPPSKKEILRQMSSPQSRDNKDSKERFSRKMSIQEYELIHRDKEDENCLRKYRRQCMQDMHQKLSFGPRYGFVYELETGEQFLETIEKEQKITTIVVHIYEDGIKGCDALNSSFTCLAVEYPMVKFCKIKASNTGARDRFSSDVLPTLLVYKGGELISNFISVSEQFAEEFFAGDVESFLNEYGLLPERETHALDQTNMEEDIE
Assay: whole cell patch clamp on isolated Guinea pig myocardial cells, IKs
Type: cell-based
Settings: Guinea pig ventricular myocytes, current recorded 10 min after administration, 25-30° C.
Procedure: Experimental title: using vitro pachynsis myocardial cells of Guinea pig, the activity is determined by the whole cell membrane Patch clamp technology.
experimental mechanism: the Guinea pig myocardial cells are separated with enzymolysis, and the rapid activation component and the slowly activation component of the delayed commutating current in the cardiac muscle cells are recorded by whole cell membrane Patch clamp. Each compound is added to the perfuse liquid for measuring current after dissolved at least 10 min. The collected data is analyzed in pulse-fit, the IC50 value for IKr and IKs of each compound is calculated.
animals: Guinea pigs, male, weight 300-400 g.
solution: calcium free Tyrode's solution
pole inner solution (mmol/L): KCl 140, MgCl2 1.0, K2-ATP 4.0, EGTA 10, HEPES 5.0, pH=7.2 […]
the cell liquor is put into the cell pool, after the cells adhering to the wall, they are perfused with outer liquor of the cells at the rate of 2 ml/min, cells that having calcium resistance and clear transverse striations are to be selected, the poles are moved to the cell surface by tridimensional manipulator. […] After the compensation to the capacitance and series impedance compensation the voltage tongs are recorded. […]
Stimulate parameter: the record of IKr and IKS: the back value of the either current is recorded. […]

## CCCCOc1ccc2c(c1)/C(=N/N1CC(=O)N(CCCN3CCN(C)CC3)C1=O)CCO2 [Ib example 11, 1-[4-(2,3-dihydro-6-butoxy)benzopyran]imino-3-[3-(4-methylpiperazine-1-yl)propyl]-2,4-imidazole dione difumarate]
  pIC50: 5.91
